{"sequences": {"note": "By UniProt entry, the sequences of proteins in these tests, tags left out.", "UniProt P21452, whole entry": "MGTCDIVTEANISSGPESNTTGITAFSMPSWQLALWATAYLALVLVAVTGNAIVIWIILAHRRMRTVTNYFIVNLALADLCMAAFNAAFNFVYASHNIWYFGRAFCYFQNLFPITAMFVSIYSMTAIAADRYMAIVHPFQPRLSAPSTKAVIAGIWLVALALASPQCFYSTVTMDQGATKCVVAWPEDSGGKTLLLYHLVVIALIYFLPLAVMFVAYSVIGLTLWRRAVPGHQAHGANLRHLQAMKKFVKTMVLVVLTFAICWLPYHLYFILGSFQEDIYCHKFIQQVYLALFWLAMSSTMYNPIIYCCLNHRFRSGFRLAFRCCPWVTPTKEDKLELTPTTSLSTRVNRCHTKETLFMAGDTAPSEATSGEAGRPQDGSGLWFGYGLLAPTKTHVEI"}, "source": "patent US5559132A", "about": "“Carboxamide derivatives for treating asthma” (Zeneca Limited, priority 1993, dated 1996)", "target": "human NK2 receptor expressed in Mouse Erythroleukemia (MEL) cells (MELM) (Homo sapiens, UniProt P21452)", "assay": "Neurokinin A (NKA) Receptor-binding Assay (Test A)", "details": "read-out: IC50 versus 3H-NKA binding to MELM; initial use of this assay; standard compound", "data": [{"smiles": "CSCC[C@@H]1NC(=O)[C@H](CC(C)C)NC(=O)CNC(=O)[C@H](Cc2ccccc2)NC(=O)[C@H](Cc2c[nH]c3ccccc23)NC(=O)[C@H](CCC(N)=O)NC1=O", "values": [{"measurement": "IC50", "result": 30, "unit": "nM"}]}]}
